Laboratory results taken from article PMC12090182, “Repurposing of the RIPK1-Selective Benzo[1,4]oxazepin-4-one Scaffold for the Development of a Type III LIMK1/2 Inhibitor” (ACS Chemical Biology, 2025).

The chains behind the UniProt entries cited, without tags or fusion partners.
UniProt Q13546, whole entry: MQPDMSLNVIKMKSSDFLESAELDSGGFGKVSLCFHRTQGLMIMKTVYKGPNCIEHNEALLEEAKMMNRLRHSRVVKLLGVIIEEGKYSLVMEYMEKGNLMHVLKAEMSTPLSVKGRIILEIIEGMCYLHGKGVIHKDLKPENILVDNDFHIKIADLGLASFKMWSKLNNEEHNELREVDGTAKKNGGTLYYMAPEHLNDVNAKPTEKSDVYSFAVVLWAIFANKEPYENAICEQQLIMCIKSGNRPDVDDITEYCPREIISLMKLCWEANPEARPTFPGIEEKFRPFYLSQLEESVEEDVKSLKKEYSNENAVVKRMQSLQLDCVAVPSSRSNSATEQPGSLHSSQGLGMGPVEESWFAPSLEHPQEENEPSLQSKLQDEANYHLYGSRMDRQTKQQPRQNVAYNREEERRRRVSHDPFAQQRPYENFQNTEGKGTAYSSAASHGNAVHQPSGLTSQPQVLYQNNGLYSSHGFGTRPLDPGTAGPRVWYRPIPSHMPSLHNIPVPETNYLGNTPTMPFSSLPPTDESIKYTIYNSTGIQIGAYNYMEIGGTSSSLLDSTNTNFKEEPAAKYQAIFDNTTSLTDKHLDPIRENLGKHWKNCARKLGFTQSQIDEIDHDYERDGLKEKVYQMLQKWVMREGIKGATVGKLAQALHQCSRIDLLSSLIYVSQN
UniProt P53671, whole entry: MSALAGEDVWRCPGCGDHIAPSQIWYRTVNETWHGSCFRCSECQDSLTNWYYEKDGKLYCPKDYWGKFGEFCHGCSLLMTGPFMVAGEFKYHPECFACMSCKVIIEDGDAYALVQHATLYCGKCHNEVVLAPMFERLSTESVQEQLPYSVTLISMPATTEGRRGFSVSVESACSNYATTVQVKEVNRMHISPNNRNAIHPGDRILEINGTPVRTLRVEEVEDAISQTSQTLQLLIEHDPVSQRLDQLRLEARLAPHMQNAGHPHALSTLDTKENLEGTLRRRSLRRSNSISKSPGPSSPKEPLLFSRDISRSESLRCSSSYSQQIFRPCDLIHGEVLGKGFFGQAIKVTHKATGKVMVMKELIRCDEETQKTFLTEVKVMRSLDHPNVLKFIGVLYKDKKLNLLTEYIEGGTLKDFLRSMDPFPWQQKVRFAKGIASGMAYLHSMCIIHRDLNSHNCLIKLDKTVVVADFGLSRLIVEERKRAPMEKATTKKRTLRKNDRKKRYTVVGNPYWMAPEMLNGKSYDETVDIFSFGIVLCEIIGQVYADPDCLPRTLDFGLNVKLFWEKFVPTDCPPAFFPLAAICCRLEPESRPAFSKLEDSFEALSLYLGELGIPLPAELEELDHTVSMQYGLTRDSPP
UniProt P53667, whole entry: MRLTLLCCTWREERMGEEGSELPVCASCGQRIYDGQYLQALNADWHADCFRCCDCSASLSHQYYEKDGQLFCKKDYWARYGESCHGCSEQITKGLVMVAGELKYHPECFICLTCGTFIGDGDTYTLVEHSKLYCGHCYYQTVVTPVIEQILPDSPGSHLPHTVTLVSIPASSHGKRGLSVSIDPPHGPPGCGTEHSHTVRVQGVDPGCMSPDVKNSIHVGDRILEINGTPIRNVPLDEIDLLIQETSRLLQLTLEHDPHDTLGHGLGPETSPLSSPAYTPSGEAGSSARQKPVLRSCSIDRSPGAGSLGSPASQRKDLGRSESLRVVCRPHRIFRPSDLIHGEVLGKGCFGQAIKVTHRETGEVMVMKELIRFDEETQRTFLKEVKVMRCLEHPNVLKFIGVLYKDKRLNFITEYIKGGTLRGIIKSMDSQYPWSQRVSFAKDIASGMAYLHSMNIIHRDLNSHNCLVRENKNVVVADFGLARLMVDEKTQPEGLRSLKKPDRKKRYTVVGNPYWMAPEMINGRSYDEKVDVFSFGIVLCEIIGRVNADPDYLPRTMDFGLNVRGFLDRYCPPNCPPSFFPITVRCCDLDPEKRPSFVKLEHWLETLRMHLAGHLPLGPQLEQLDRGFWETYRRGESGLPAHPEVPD

Legend:
Test in all cases: NanoBRET cellular target engagement
Format in all cases: cell-based
RIPK1 = RIPK1 (Homo sapiens, UniProt Q13546); details: read-out: EC50 (NanoBRET); RIPK1, HEK293T cells
LIMK2 = LIMK2 (Homo sapiens, UniProt P53671); details: read-out: EC50 (NanoBRET); LIMK2, HEK293T cells
LIMK1 = LIMK1 (Homo sapiens, UniProt P53667); details: read-out: EC50 (NanoBRET); LIMK1, HEK293T cells

## CN1C(=O)[C@@H](N2CCc3c(nn(Cc4ccccc4)c3Br)C2=O)COc2ccccc21
RIPK1
  EC50: 0.0031 µM
LIMK2
  EC50: 8.6 µM
LIMK1
  EC50: 16 µM
